Source: patent US20140227208A1, “COSMETIC COMPOSITIONS CONTAINING SUBSTITUTED AZOLE AND METHODS FOR ALLEVIATING MECHANICALLY-INDUCED SKIN INFLAMMATION” (The Procter & Gamble Company, priority 2013, published 2014)

Protein sequences, listed by entry. Tags and fused reporters are not part of them.
UniProt P08684, whole entry: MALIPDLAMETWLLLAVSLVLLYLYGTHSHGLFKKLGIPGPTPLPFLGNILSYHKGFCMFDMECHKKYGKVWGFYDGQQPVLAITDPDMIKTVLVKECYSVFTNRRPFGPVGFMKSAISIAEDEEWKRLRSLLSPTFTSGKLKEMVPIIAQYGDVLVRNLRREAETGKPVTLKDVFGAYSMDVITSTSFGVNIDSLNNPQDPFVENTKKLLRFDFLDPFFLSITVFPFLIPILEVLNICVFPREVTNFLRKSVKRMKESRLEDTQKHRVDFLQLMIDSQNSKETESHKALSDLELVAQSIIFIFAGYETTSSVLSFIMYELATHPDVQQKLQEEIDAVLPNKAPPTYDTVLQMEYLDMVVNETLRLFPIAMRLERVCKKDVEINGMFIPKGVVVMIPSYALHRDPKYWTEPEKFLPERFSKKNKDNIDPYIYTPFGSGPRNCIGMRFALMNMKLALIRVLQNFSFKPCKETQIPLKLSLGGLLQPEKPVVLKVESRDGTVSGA

Target: CYP3A4 (Homo sapiens, UniProt P08684)
Assay: In vitro CYP/CYP3A4 inhibition assay (P450-GLO Assay kit, Promega)

Nc1ncn(Cc2ccccc2)c2ncnc1-2
Hit / no hit for inhibition of CYP3A4 (human recombinant CYP3A4): no hit (weak/no inhibition (IC50 value>10 μM)) | IC50 (read-out: IC50 (uM), CYP3A4 inhibition, human recombinant CYP3A4): > 10 µM
